Sequences of proteins named here, by UniProt entry; tags and fusion partners are left off.
ATP-dependent Clp protease proteolytic subunit (Bacillus subtilis (strain 168)), P80244, UniProt P80244, whole entry, looked up: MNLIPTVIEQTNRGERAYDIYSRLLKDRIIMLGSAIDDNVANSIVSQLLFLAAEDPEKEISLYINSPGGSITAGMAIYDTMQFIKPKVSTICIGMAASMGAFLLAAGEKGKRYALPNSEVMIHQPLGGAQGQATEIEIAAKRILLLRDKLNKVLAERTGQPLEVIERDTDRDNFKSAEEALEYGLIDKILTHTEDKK

# Bioassay records deposited in PubChem BioAssay by National Center for Advancing Translational Sciences (NCATS).
# miR-21 reporter – raises the signal of a miR-21 reporter | HeLa miR-21 FLuc reporter, luciferase, 48 h | Potency, µM (doses to about 38.3 µM), for the others: at the highest dose reporter change, positive = more light | 340,000 tested, under 10 active | AID 2288; active = well fitted rising curve with a large enough effect; inconclusive = small, poorly fitted or top-dose-only effect; inactive = no such curve, though single readings can be large or run the other way;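 also: % of control where 0% means no effect; miR-21 action dims this reporter so a rising signal means less miR-21 action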
#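 HeLa miR-21-FLuc reporter line, endogenous miR-21; 2000 cells/well in DMEM/10% FBS; compound titration up to ~40uM final, 48 h, 37 degree Celsius; luciferase detection reagent, 15 min lysis, CCD luminescence.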
# IL2 activator – activates IL-2 in a cell-based reporter assay; IL-2 activation reporter assay, cell-based qHTS; stimulated with anti-CD3/CD4/CD28 beads; in transgenic mouse T cells; activation, % (series mostly up to about 46 µM); 360,000 compounds, 0.065% hits; in the data active = activation above about 50%; inconclusive = mostly about 30% to 49%; note: 0% is about no effect
#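 First, unstimulated transgenic mouse T cells were exposed to compound for 60 min. Next, anti-CD3/anti-CD4-coated beads with anti-CD28 were added. Finally, after 18 h at 37 degrees C, EGFP and DsRed were imaged.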
# Nrf2 inh – inhibitors of Nrf2 signaling | Potency, µM (titrated, usually from 46 µM), inactives show at the top dose activity change, negative = inhibition, hits mostly inhibitors | 360,000 compounds, 2.1% hits | AID 504444 | A549 ARE-Fluc reporter, luciferase luminescence, 18-24 h; note: potency is the fitted concentration of half-maximal effect; % is set by controls: 0 for no effect and ±100 for the full control effect; nearly all actives have a fitted effect of over 60% in size
#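 A549 ARE_Fluc cells, 5000/well, 5% FBS OPTI-MEM; compounds in dose-response, 18-24 h at 37 °C/5% CO2; CellTiter-Fluor viability read (Ex 405/Em 525), then BugLite luciferase luminescence = Nrf2 activity.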
# ClpP mod – qHTS Assay for Activators of ClpP. ATP-dependent Clp protease proteolytic subunit (Bacillus subtilis (strain 168)), P80244. purified B. subtilis ClpP, FRET peptide cleavage, 20 min. Potency, µM (top dose mostly 57.5 µM), for the others: top-dose activity change, negative = active. 340,000 compounds, 1.9% hits; active = well fitted falling curve with a large enough effect; inconclusive = small, poorly fitted or top-dose-only effect; inactive = no such curve, though single readings can be large or run the other way; note: potency is the fitted concentration of half-maximal effect; the source files actives as falling curves though it sought activators and does not explain the sign; nearly all actives have a fitted effect of over 65% in size
#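 FRET quenching reversal measured ClpP activation: 10 microg/mL B. subtilis ClpP at pH 8 with the FRET-FV decapeptide, read at 430 nm after 320 nm excitation. The 20-min minus 0-min signal was scaled between DMSO/no-enzyme wells and ADEP (5.8 microM final).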
# Nrf2 ARE act – activates Nrf2 signaling | AREc32 ARE-luciferase reporter (MCF7-derived line), luminescence, 24 h | Potency, µM (top dose mostly 46.1 µM), inactives show top-dose activation, usual class: activators | 410,000 compounds, 0.31% hits; note: potency is the fitted concentration of half-maximal effect; % of control where 0% means no effect; nearly all actives have a fitted effect of over 65% in size
#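 AREc32 cells carrying an ARE-driven firefly luciferase reporter were seeded at 1000 cells/well in OPTI-MEM with 5% FBS, then exposed to compound for 24 hr at 37 deg C. Luminescence was read with Steady-Glo after 30 min at RT.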
# A549 tox – A549 cytotoxicity, counter-screen for Nrf2 inhibitors. A549 ARE-Fluc cells, CellTiter-Fluor viability, 18-24 h. Potency, µM (doses to about 46 µM), for the others: at the highest dose activity change, negative = cytotoxicity, hits mostly inhibitors. 390,000 compounds, 0.16% hits. AID 504648; note: potency is the fitted concentration of half-maximal effect; % is set by controls: 0 for no effect and ±100 for the full control effect
#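 Cytotoxicity counterscreen: CellTiter-Fluor fluorescence was measured in A549 ARE_Fluc cells after 18-24 h of compound exposure in a concentration series. The subsequent BugLite luminescent read reports ARE-luciferase activity.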
# An asterisk follows results filed as active; ? = inconclusive; · = not tested or not shown. Hits are enriched below; roughly 3.7% of the tested compounds scored in any of these assays. Unless noted, calls come from the whole dose curve; as a rule, active = well fitted curve in the direction sought with a large enough effect; inconclusive = small, poorly fitted or top-dose-only effect, or another doubt; inactive = no such curve, though single readings can be large; an effect the other way counts as inactive or inconclusive.
# Letters: A = miR-21 reporter; B = IL2 activator; C = Nrf2 inh; D = ClpP mod; E = Nrf2 ARE act; F = A549 tox
Cc1ccccc1C(=O)NNC(=S)NC(=O)c1ccc(Cl)cc1Cl
  A: -6.3%; B: -0.9; C: 23.1µM*; D: -0.3%; E: 1.6%; F: ?

CC(=O)NNC(=S)NC(=O)c1ccc(C)cc1
  A: -13.8%; B: 0.9; C: ?; D: ·; E: -0.9%; F: 6.8%

O=C(NC(=S)NNC(=O)c1ccc(Cl)cc1Cl)c1cccnc1
  A: -20.7%; B: -1.9; C: 11.4%; D: -2.7%; E: 3.8%; F: 0.0%

Cc1ccc(C(=O)NNC(=S)NC(=O)c2ccc(Cl)cc2)cc1
  A: -7.3%; B: -3.4; C: 16.4µM*; D: 3.0%; E: -0.8%; F: ?

COc1ccc(C2N(Cc3ccccc3)C(=O)c3ccccc3N2C)cc1COc1ccc(NC(C)=O)cc1 (stereo unspecified)
  A: ·; B: ·; C: ?; D: ·; E: ·; F: -10.0%

COc1ccc(NC(=O)Nc2cc(F)ccc2C)cc1
  A: -3.3%; B: 2.7; C: 20.6µM*; D: -3.7%; E: -0.4%; F: -8.6%

COc1ccc(NC(=O)Nc2cccc(OC)c2)cc1
  A: ·; B: 0.2; C: 25.9%; D: -2.1%; E: 0.3%; F: 7.8%

COc1cccc(NC(=O)Nc2cc(Cl)ccc2C)c1
  A: 10.9%; B: -3.9; C: 18.4µM*; D: ·; E: 2.1%; F: -2.7%

COC(=O)c1ccccc1NC(=O)c1cc2sccc2n1C
  A: -0.5%; B: 4.2; C: ·; D: 31.6µM*; E: 3.5%; F: -5.1%

Cc1nn2c3c(cnc2c1-c1ccc(F)cc1)C(=O)CC(c1ccccc1)C3 (stereo unspecified)
  A: -1.6%; B: ·; C: -19.3%; D: 0.5%; E: -1.1%; F: 4.0%

C/C(=N/NC(=O)c1ccncc1)c1cc2ccc(O)cc2oc1=O
  A: -5.7%; B: -0.3; C: -13.2%; D: 31.6µM*; E: 0.1%; F: -0.8%

N#Cc1nc(Nc2cc(Cl)cc(Cl)c2)nc(NC2CCCC2)n1
  A: ·; B: ·; C: ?; D: ·; E: ·; F: -27.3%

CCOc1ccc(CCNC(=O)c2cc3c(-c4ccccc4F)nn(C)c3s2)cc1OCC
  A: ?; B: ·; C: 18.4µM*; D: ?; E: 0.6%; F: -7.4%

CCOc1ccc(CCNC(=O)c2cc3sc(CC)cc3n2C)cc1OCC
  A: 8.2%; B: ·; C: 18.4µM*; D: -7.5%; E: 0.9%; F: 0.3%

CCOc1ccc(CC(=O)Nc2c(C(=O)c3ccccc3)oc3ccc(Cl)cc23)cc1OCC
  A: -1.8%; B: ·; C: -9.1%; D: -0.5%; E: -0.8%; F: -5.8%

# Next part, starting with the last 3 of the part before.
# Letters: A = miR-21 reporter; B = IL2 activator; C = Nrf2 inh; D = ClpP mod; E = Nrf2 ARE act; F = A549 tox
CCOc1ccc(CCNC(=O)c2cc3c(-c4ccccc4F)nn(C)c3s2)cc1OCC
  A: ?; B: ·; C: 18.4µM*; D: ?; E: 0.6%; F: -7.4%

CCOc1ccc(CCNC(=O)c2cc3sc(CC)cc3n2C)cc1OCC
  A: 8.2%; B: ·; C: 18.4µM*; D: -7.5%; E: 0.9%; F: 0.3%

CCOc1ccc(CC(=O)Nc2c(C(=O)c3ccccc3)oc3ccc(Cl)cc23)cc1OCC
  A: -1.8%; B: ·; C: -9.1%; D: -0.5%; E: -0.8%; F: -5.8%

O=c1cc(-c2ccc(F)cc2)nc(SCc2nc(-c3ccccc3Cl)no2)[nH]1
  A: -6.9%; B: ·; C: ·; D: 1.2%; E: 0.0%; F: 10.0%

Cc1ccc(NS(=O)(=O)c2ccc3c(c2)N(C)CCO3)cc1C
  A: ·; B: ·; C: ?; D: ·; E: ·; F: -0.5%

CN1CCN(C(=O)c2cc(COc3ccc(F)cc3Cl)on2)CC1c1ccccc1 (stereo unspecified)
  A: -7.1%; B: -3.1; C: 13µM*; D: ·; E: 4.5%; F: ?

CC(OC(=O)/C=C/c1ccco1)C(=O)NC1CCCCC1C (stereo unspecified)
  A: ·; B: -0.3; C: 13µM*; D: -0.7%; E: 0.1%; F: -7.5%

COc1ccc([N+](=O)[O-])cc1NC(=O)C(C)OC(=O)/C=C/c1ccco1 (stereo unspecified)
  A: -1.7%; B: 0.1; C: -19.2%; D: 2.0%; E: 12.6µM*; F: 12.3%

CC(OC(=O)/C=C/c1cccs1)C(=O)NC1CCCCC1C (stereo unspecified)
  A: 1.6%; B: -2.1; C: -7.8%; D: -0.3%; E: -1.0%; F: -12.5%

COc1ccc([N+](=O)[O-])cc1NC(=O)c1ccco1
  A: -1.1%; B: -0.1; C: -21.0%; D: ·; E: 3.16µM*; F: 1.3%

CCOC(=O)c1nnn(C(CC)C(=O)Nc2c(C)cccc2C)c1C(=O)OCC (stereo unspecified)
  A: 4.7%; B: ·; C: 0.6%; D: 1.0%; E: 0.4%; F: 0.6%

CCc1ccc(C(=O)N2CCC(c3nc(-c4ccc(S(=O)(=O)N5CCCC5)cc4)no3)CC2)cc1
  A: 19.9%; B: ·; C: 11.6µM*; D: 0.7%; E: -1.2%; F: -19.4%

O=C(c1ccc(F)cc1)N1CCC(c2nc(-c3ccc(S(=O)(=O)N4CCCC4)cc3)no2)CC1
  A: 10.7%; B: ·; C: -25.5%; D: -0.6%; E: -0.5%; F: 0.3%

CC(C)Cn1c(=O)c2ccccc2n2c(CCC(=O)Nc3ccc(F)cc3)nnc12
  A: 4.2%; B: ·; C: 3.8%; D: 6.3%; E: 0.1%; F: 3.2%
